Reference: US20110306503A1, “TEMPLATE-DEPENDENT NUCLEIC ACID POLYMERIZATION USING OLIGONUCLEOTIDE TRIPHOSPHATES BUILDING BLOCKS” (Yeda Research And Development Co. Ltd., priority 1999, published 2011)

Chains of the proteins cited; added tags and fusions are not shown. Lines headed by an entry give the natural chain unless they say otherwise; changes in a name come on top. Residues count along the entry.
UniProt P19821, 290-832 limits assumed: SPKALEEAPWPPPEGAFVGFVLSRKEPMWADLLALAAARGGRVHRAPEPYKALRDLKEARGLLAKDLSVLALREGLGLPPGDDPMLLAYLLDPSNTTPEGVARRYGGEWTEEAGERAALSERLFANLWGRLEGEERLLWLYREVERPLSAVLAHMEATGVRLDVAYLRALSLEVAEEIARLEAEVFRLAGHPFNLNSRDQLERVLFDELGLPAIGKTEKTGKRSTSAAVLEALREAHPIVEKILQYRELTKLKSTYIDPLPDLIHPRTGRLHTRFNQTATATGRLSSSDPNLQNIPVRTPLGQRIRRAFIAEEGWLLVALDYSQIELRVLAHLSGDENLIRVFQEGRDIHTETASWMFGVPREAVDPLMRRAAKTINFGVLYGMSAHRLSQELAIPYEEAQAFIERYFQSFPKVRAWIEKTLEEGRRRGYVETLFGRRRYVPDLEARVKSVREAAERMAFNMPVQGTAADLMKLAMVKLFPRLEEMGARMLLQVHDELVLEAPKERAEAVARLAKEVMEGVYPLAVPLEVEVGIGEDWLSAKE
UniProt P04994: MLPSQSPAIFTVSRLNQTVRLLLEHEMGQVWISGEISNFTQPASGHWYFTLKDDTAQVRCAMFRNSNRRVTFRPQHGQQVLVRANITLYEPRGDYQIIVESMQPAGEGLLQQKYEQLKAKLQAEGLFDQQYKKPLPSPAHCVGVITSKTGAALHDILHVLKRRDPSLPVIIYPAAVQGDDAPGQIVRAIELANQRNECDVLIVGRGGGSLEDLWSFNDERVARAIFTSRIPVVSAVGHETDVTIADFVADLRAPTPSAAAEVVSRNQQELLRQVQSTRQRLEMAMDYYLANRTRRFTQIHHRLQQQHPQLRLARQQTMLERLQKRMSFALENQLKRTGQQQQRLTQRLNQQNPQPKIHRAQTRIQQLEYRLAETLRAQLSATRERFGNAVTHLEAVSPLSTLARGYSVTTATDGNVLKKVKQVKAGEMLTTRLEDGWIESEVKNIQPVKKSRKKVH

Key:
Assay type in all cases: biochemical
[1] = biological target: T1, truncated version of Taq DNA polymerase (Thermus aquaticus, UniProt P19821); assay: Polymerization assay (template extension, Exo VII digestion, PCR amplification)
T1 construct: a truncated version of Taq DNA polymerase (543 amino acids of the C-terminus part); made in house; host or cells: E. coli JM109 (pTTQ vector)
Experimental: Oligonucleotides (Table 2) used for the polymerization assay were purified by electrophoresis on Urea-PAGE. For the polymerization assay, a truncated version of Taq DNA polymerase (543 amino acids of the C-terminus part), was cloned in the pTTQ vector (Stark, 1987), and expressed (in E. coli JM109) and purified as described (Lawyer et al., 1993).
Template-extension reaction (step I, FIG. 3) includes a polymerization buffer (40 mM Tricine-KOH, pH 8.0; 16 mM KCl; 3.5 mM MgCl2 and 4 μg BSA), 1 pmol T1 template, 1 pmol T7 primer, 20 nM of each of the four dNTP's and 5 units of DNA polymerase in total volume of 20 μl. Where indicated, 3 μM TpT3p replaced the dTTP in the reaction mix. Reaction was incubated for 2 min at 94° C., 5 minutes at 55° C., 30 seconds at 60° C., 30 seconds at 65° C., and then 10 minutes at 72° C.
(§1) Exonuclease-digestion reaction (step II, FIG. 3) included 0.75 units of Exo VII (GibcoBRL), the supplier's buffer and 3 μl of the reaction of step I. Reactions were incubated for 30 minutes at 37° C. and then quenched on ice.
PCR amplification (step III, FIG. 3) included the above described polymerization buffer, additional 2 μg BSA, 1 μl of the reaction of step II, 0.1 mM dNTP's, 0.5 pmol T2 template, and 5 pmol of both, T7 and B primers. The reactions, in 20 μl, were performed in glass capillaries on RapidCycler (Ideho Technology), using thermal steps of: 1 minute at 94° C., followed by 30 cycles of 5 seconds at 94° C., 15 seconds at 50° C.; and 25 seconds at 72° C. The PCR products were separated on 1.4% agarose gels, and visualized by UV light following ethidium bromide staining.
Incorporation of TpT3p by template-dependent polymerization was tested in a very sensitive assay of three steps, as detailed in Example 3 and FIG. 3, and exemplified in FIG. 4. In step I, a template containing three (T1-3), four (T1-4) or five (T1-5) runs of deoxyadenosine (A), followed by a non-A containing region was extended from a specific oligonucleotide primer (T7) in the presence of a DNA polymerase and the nucleotide mixtures described in Example 3. In step II, the polymerization products were treated by a single-strand specific exonuclease, so that non-extended single-strand regions in T1 were removed. Only products that were extended in step I, but not digested in step II, could be amplified in step III in the presence of oligonucleotides T7, B and T2. This assay is sensitive enough to identify even a small amount of molecules that were extended in step I, and can be used as a general means to amplify the capacity of polymerases to introduce a nucleotide analog by template extension.

Exo VII = biological target: T2, Exo VII (Escherichia coli, UniProt P04994); assay: Test whether TpT3p inhibits Exo VII in step II of the polymerization assay; settings: 3 μM; reactants of step I without polymerase; absence of any PCR products
T2 construct: purchased GibcoBRL
Experimental: as §1
In order to test the possibility that TpT3p inhibits Exo VII in Step II of the polymerization assay, and therefore that the ss-DNA regions for subsequent amplification in step III were retained, an additional experiment performed containing the reactants of step I (but without polymerase added), and 3 μM TpT3p.

Taq DNA polymerase = biological target: T3, Taq DNA polymerase (Thermus aquaticus, UniProt P19821); assay: Labeled-primer extension assay
T3 construct: a truncated version of Taq DNA polymerase (543 amino acids of the C-terminus part); made in house; host or cells: E. coli JM109 (pTTQ vector)
Experimental: The oligonucleotides that were used for this assay are detailed in Table 4 before. The reactions of labeled-primer extension included: polymerization buffer (40 mM Tricine-KOH, pH 8.0; 16 mM KCl; 5 mM MgCl2 and 4 μg BSA), 1 pmol template, 0.2 pmol of the p201 primer (labeled at its 5′ with P^32-γ-ATP using T4 polynucleotide kinase), 1 μM of the indicated dNTP's and 50 μM of the indicated di- or trinucleotide triphosphates in a total volume of 20 μl. The reactions were incubated for 5 minutes at 45° C., then 5 units of Taq DNA polymerase (see Example 3 for details) were added, followed by 20 minutes at 72° C. The reactions were terminated with 15 μl of stop solution (95% formamide, 20 mM EDTA and 0.05% bromophenol blue). Three μl were then separated on Urea-PAGE, and the radiolabeled DNA-bands were detected by phosphoimaging.

thymidylyl-3′-5′-thymidine dinucleotide triphosphate (DNA TT; DNA, phosphodiester; triphosphate, position not given here, further chemistry not fully specified) [TpT3p]
PCR-amplification products in step III (template-dependent incorporation), template with even A-run ([1]; 3 μM TpT3p replaced dTTP in step I, template T1-4 (four A's)): only with template T1-4
PCR-amplification products in step III (template-dependent incorporation), templates with odd A-runs ([1]; 3 μM TpT3p replaced dTTP in step I, templates T1-3 and T1-5): no PCR products
concentration that support primer extension ([1]; albeit with lower yield): 50 nM
concentration supporting primer extension relative to that found for dTTP ([1]; fold higher than dTTP): more than 100 fold
inhibition of Exo VII (Exo VII): not inhibited
template-dependent incorporation in a mix with dCTP and dATP (Taq DNA polymerase; template T24, FIG. 7 lanes 4 and 5): utilized
incorporation of dinucleotide compared with trinucleotide (Taq DNA polymerase; template T24, with dCTP and dATP, FIG. 7 lanes 4 and 5): incorporated much better than the trinucleotide
template-dependent incorporation onto 3′ end of labeled primer p201 (Taq DNA polymerase; templates T80 and T81, 50 μM dinucleotide triphosphates, FIG. 6 lanes 3-7): correct incorporation
efficiency of incorporation compared to the natural dNTP's (Taq DNA polymerase; templates T80 and T81, FIG. 6 lanes 3-7 vs lane 2): lower efficiency
